Assays:
in vitro = conditions: mouse, hepatocytes
GSK3β(h) = GSK3β(h) (Homo sapiens, UniProt P49841); experiment: biochemical
P. falciparum 3D7 = experiment: microbe, parasite or virus in culture; conditions: Plasmodium falciparum
[1] = system: asexual P. falciparum 3D7 parasites; experiment: Time of inhibition assays in 3D7 parasites; conditions: 1 μM (8 × EC50), dosed at early ring, immature and mature trophozoite, schizont

Amino acid sequences for entries named in this document (tags omitted). A change or cut given only in a name is not applied to a line headed by its entry.
UniProt P49841: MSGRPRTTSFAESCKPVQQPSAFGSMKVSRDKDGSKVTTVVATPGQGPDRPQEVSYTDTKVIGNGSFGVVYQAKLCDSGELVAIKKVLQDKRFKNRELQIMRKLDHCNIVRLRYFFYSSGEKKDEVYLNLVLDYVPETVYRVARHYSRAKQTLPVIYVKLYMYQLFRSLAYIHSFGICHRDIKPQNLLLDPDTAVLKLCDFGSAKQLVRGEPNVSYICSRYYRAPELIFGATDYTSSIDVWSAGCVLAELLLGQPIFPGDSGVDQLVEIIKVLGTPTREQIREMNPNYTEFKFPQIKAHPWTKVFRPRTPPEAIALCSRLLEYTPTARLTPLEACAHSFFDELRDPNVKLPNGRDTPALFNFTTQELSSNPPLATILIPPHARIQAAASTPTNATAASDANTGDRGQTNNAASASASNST

SMILES	hepatocyte CLint (in vitro) [µL/min/1e6 cells]	remaining activity at 1 µM (GSK3β(h)) [%]	EC50 (P. falciparum 3D7; 3D7, 72 h, read-out: pEC50 (3D7) (converted)) [nM]	IC50 (P. falciparum 3D7; 3D7, read-out: potency following washout (pIC50) (converted)) [nM]	phenotypic response [1]
CCN(CC)Cc1ccc(OC)c(-c2cc3c(-c4ccc(C(=O)O)c(C(C)C)c4)ccnc3[nH]2)c1 [Compound 1, TCMDC-135051]	12.3	46	129	1230	
COc1ccc(CN2CCN(C(=O)CCl)CC2)cc1-c1cc2c(-c3ccc(C(=O)O)cc3)ccnc2[nH]1 [Compound 4, 4-[2-(5-{[4-(2-Chloroacetyl)piperazin-1-yl]methyl}-2-methoxyphenyl)-1H-pyrrolo[2,3-b]pyridin-4-yl]benzoic Acid]					arrests development and kills parasites at every stage in the erythrocytic life cycle

Source: paper PMC11571108 (2024)
